In PubChem BioAssay AID602229 (The Scripps Research Institute Molecular Screening Center, 2012):
Only a part is listed here, and it is no random draw. Activity calls are given as the source filed them.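 Rule for the calls: active = inhibition above the mean of all tested compounds plus 3 SD (cut at about 70% in these data); inactive = the rest.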

Amino acid sequences for entries named in this document (tags omitted). A change or cut given only in a name is not applied to a line headed by its entry.
UniProt Q9Y5X4: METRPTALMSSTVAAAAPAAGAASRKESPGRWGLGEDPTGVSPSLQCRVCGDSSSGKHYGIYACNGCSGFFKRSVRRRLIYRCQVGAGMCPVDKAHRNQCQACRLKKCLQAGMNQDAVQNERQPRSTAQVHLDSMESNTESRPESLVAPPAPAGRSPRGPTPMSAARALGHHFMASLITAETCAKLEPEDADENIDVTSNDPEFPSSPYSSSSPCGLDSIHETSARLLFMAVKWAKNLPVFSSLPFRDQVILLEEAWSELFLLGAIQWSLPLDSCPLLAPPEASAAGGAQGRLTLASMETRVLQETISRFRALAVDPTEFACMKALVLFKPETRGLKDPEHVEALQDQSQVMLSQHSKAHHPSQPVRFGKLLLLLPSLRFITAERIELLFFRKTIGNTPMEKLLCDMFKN

These compounds were tested against Photoreceptor-specific nuclear receptor (Homo sapiens) (UniProt Q9Y5X4) (assay: NR2E3 agonists in two-hybrid cells, primary screen, cell-based, luminescence, CHO-S, Gal4-NCOR/VP16-NR2E3 (AID 602229;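 note: 0% = DMSO with NR2E3 transfected cells and 100% = cells lacking NR2E3 construct; higher means lower luciferase signal from less NR2E3 corepressor binding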)). Conditions: luciferase, at 3.98 µM, hits give high values.
For `Nc1ccccc1[As](=O)(O)c1ccccc1`, the inhibition of corepressor binding was inactive: 4.33%. `O=C(O)COc1ccc([As](=O)(O)O)cc1[N+](=O)[O-]` was tested, and the inhibition of corepressor binding was inactive: 2.94%. For `O=P(Nc1nccs1)(Oc1ccccc1)Oc1ccccc1`, the inhibition of corepressor binding was inactive: 0.78%. In the case of `O=P(Nc1nccs1)(c1ccccc1)c1nc2ccccc2s1` (stereo not given), the inhibition of corepressor binding is reported as inactive: 31%. With `CCOP1(=S)c2c(C)nn(CCC#N)c2N=C(c2ccccc2F)N1C` (stereo not given) the inhibition of corepressor binding was inactive: -18.5%. In the case of `CS(=O)(=O)c1cc([N+](=O)[O-])c2no[n+]([O-])c2c1`, the inhibition of corepressor binding is reported as inactive: -0.32%. In the case of `CN(C(=O)Cc1ccccc1)[C@@H]1CC[C@]2(CCCO2)C[C@H]1N1CCCC1`, the inhibition of corepressor binding is reported as inactive: -43.6%. In the case of `CCOP1(=S)c2c(C)nn(CCC#N)c2N=C(c2ccc(F)cc2)N1C` (stereo not given), the inhibition of corepressor binding is reported as inactive: 2.56%. For `N#CCCN(C(=O)COC(=O)C(O)(c1ccccc1)c1ccccc1)c1ccc(F)cc1`, the inhibition of corepressor binding was inactive: 6.06%. In the case of `CN(C(=O)Cc1ccc(Cl)c(Cl)c1)[C@H]1CC[C@@]2(CCCO2)C[C@@H]1N1CCCC1`, the inhibition of corepressor binding is reported as inactive: -2.36%. In the case of `O=[N+]([O-])c1ccc2c(c1)nnn2O`, the inhibition of corepressor binding is reported as inactive: 23.8%. With `CN(C)C(=O)c1cc([N+](=O)[O-])cc2c1-c1c(cc([N+](=O)[O-])cc1[N+](=O)[O-])C2=O` the inhibition of corepressor binding was inactive: 17.6%. In the case of `NC(=O)Nc1ccc([As](=O)(O)O)cc1`, the inhibition of corepressor binding is reported as inactive: -4.74%. For `Cc1cccc(OCC(=O)OC2CN3CCC2CC3)c1` (stereo not given), the inhibition of corepressor binding was inactive: -15.5%. In the case of `O=[As](O)(c1cccc(O)c1)c1cccc(O)c1`, the inhibition of corepressor binding is reported as inactive: 13.8%. For `O=C(OC1CN2CCC1CC2)c1ccc(Cl)cc1` (stereo not given), the inhibition of corepressor binding was inactive: -21%. With `CS(=O)(=O)c1ccc(Cl)c(NC(=O)COC(=O)C(O)(c2ccccc2)c2ccccc2)c1` the inhibition of corepressor binding was inactive: -21.8%. For `O=[As](O)(O)c1cccnc1`, the inhibition of corepressor binding was inactive: -2.76%. With `COc1cc(C(=O)NCC2(N3CCOCC3)CCCCC2)cc(Cl)c1OC(C)C` the inhibition of corepressor binding was inactive: -39.4%. With `CCOP(=O)(Nc1cccc2ccccc12)OCC` the inhibition of corepressor binding was inactive: 1.46%. For `COc1cc(C2NCCC3(OCCO3)C2(C)C)cc(OC)c1OC` (stereo not given), the inhibition of corepressor binding was inactive: -1.56%. In the case of `Nc1cccc2c([As](=O)(O)O)cccc12`, the inhibition of corepressor binding is reported as inactive: 6.07%. `Cc1ccc(NCCc2c([N+](=O)[O-])cc([N+](=O)[O-])cc2[N+](=O)[O-])cc1` was tested, and the inhibition of corepressor binding was inactive: -3.76%. For `CCCOP(=S)(Nc1nc(N)cc(=O)[nH]1)OCCC`, the inhibition of corepressor binding was inactive: -9.22%. `CC(C)(C)C(=O)NC(Sc1ncccn1)C(Cl)(Cl)Cl` (stereo not given) was tested, and the inhibition of corepressor binding was inactive: -19.3%. With `O=P1(N(CCCl)CCCl)NCCC(C(F)(F)F)O1` (stereo not given) the inhibition of corepressor binding was inactive: -20%. In the case of `Clc1n[nH]nc1-c1nn[nH][15n]1`, the inhibition of corepressor binding is reported as inactive: 23.8%. `CCOP(=O)(NC(=NC(C)c1ccccc1)NC(C)c1ccccc1)OCC` (stereo not given) was tested, and the inhibition of corepressor binding was inactive: -7.2%. For `O=P1(Nc2ccccn2)COc2ccccc2OC1`, the inhibition of corepressor binding was inactive: -0.13%. `CCC1=CC2Cc3nc4ccc(Cl)cc4c(N)c3C(C1)C2` (stereo not given) was tested, and the inhibition of corepressor binding was inactive: 1.47%. `CN(CCCl)Cc1cc(Cl)c(NC2=NCCN2)c(Cl)c1` was tested, and the inhibition of corepressor binding was inactive: 3.16%. In the case of `CC(C)/C=N\N=C(\N)N[N+](=O)[O-]`, the inhibition of corepressor binding is reported as inactive: 0.73%. With `CN(C(=O)Cc1ccc(Cl)c(Cl)c1)[C@@H]1CCCC[C@H]1N1CCCC1` the inhibition of corepressor binding was inactive: 18.3%. In the case of `CC1(CBr)Cn2c(nc3ccccc3c2=O)S1` (stereo not given), the inhibition of corepressor binding is reported as inactive: -8.28%. For `COc1ccccc1CNC(=O)COC(=O)C(O)(c1ccccc1)c1ccccc1`, the inhibition of corepressor binding was inactive: 10%. In the case of `CN(C)C1(CNC(=O)c2ccc(S(C)(=O)=O)cc2)CCCCC1`, the inhibition of corepressor binding is reported as inactive: 7.95%. In the case of `CCCC1OP(=O)(Nc2ccccc2)OCC1CC` (stereo not given), the inhibition of corepressor binding is reported as inactive: 6.55%. With `O=C(/C=C/c1ccccc1)OC1CN2CCC1CC2` (stereo not given) the inhibition of corepressor binding was inactive: 12.9%. With `CC1CCC(C(C)C)C(OP(=O)(Nc2ccccn2)c2ccccc2)C1` (stereo not given) the inhibition of corepressor binding was inactive: 38.7%. In the case of `Cc1ccc(C(=O)OC2CN3CCC2CC3)cc1` (stereo not given), the inhibition of corepressor binding is reported as inactive: -36.7%. `Cc1nn(-c2ccccc2)c2c1P(=O)(N1CCOCC1)N(C)C(c1ccccc1)=N2` (stereo not given) was tested, and the inhibition of corepressor binding was inactive: -28%. For `Nc1cccc([As](=O)(O)c2ccccc2)c1`, the inhibition of corepressor binding was inactive: -18.8%. In the case of `O=[As](O)(c1cccs1)c1cccs1`, the inhibition of corepressor binding is reported as inactive: -15.1%. In the case of `Cc1ccc(OCC(=O)OC2CN3CCC2CC3)cc1` (stereo not given), the inhibition of corepressor binding is reported as inactive: -26%. For `O=P1(Nc2ccc(Br)cn2)COc2ccccc2OC1`, the inhibition of corepressor binding was inactive: -8.76%. In the case of `NS(=O)(=O)c1cccc(NC(=O)COC(=O)C(O)(c2ccccc2)c2ccccc2)c1`, the inhibition of corepressor binding is reported as inactive: -5.43%. In the case of `Cc1ccc(S(=O)(=O)N(CCCN)CCCc2c(C)nc(N)[nH]c2=O)cc1`, the inhibition of corepressor binding is reported as inactive: -0.29%. With `O=P1(Nc2ncccn2)COc2ccccc2OC1` the inhibition of corepressor binding was inactive: -3.94%. With `COP(=O)(OC)N1CC1c1ccccc1` (stereo not given) the inhibition of corepressor binding was inactive: 7.24%. With `Cc1cc(SC(NC(=O)c2ccccc2)C(Cl)(Cl)Cl)nc(C(C)C)n1` (stereo not given) the inhibition of corepressor binding was inactive: -3.01%. With `CCCCOc1ccc(C(=O)NCC2(N3CCCCC3)CCCCC2)cc1OC` the inhibition of corepressor binding was inactive: -9.13%. For `CCOC(=O)Nc1ccc([As](=O)(O)O)c(O)c1`, the inhibition of corepressor binding was inactive: -19.5%. With `O=C(O)C(O)c1ccc(N(CCCl)CCCl)cc1` (stereo not given) the inhibition of corepressor binding was inactive: -0.32%. `CC1CCNP(=O)(N(CCCl)CCCl)O1` (stereo not given) was tested, and the inhibition of corepressor binding was inactive: 10.8%. In the case of `O=P(Nc1ccccn1)(c1cccc2ccccc12)c1cccc2ccccc12`, the inhibition of corepressor binding is reported as inactive: -2.53%. For `Cc1cc(SC(NC=O)C(Cl)(Cl)Cl)ncn1` (stereo not given), the inhibition of corepressor binding was inactive: 18.3%. With `O=[N+]([O-])c1ccc(Nc2ccc(Oc3ccc([N+](=O)[O-])cc3[N+](=O)[O-])cc2)c([N+](=O)[O-])c1` the inhibition of corepressor binding was inactive: -14.8%. With `CCOC(=O)Nc1cccc([As](=O)(O)O)c1` the inhibition of corepressor binding was inactive: 27.4%. `O=C(O)C(=O)c1ccc(N(CCCl)CCCl)cc1` was tested, and the inhibition of corepressor binding was inactive: -26.7%. For `O=C(Nc1ccncc1[N+](=O)[O-])c1ccc([N+](=O)[O-])cc1[N+](=O)[O-]`, the inhibition of corepressor binding was inactive: -32%. `O=C(COc1ccccc1)OC1CN2CCC1CC2` (stereo not given) was tested, and the inhibition of corepressor binding was inactive: 0.04%. For `COC(=O)C1(C)COP(=O)(N2CCCC2)OC1` (stereo not given), the inhibition of corepressor binding was inactive: -2.74%. In the case of `COP1(=S)c2c(C)nn(CCC#N)c2N=C(c2ccc(F)cc2)N1C` (stereo not given), the inhibition of corepressor binding is reported as inactive: -7.54%. `CCC(C)N(CC(C)C)C(=S)SC(NC(C)=O)C(Cl)(Cl)Cl` (stereo not given) was tested, and the inhibition of corepressor binding was inactive: 14.7%. In the case of `CSc1ccc(Nc2c([N+](=O)[O-])cc([N+](=O)[O-])cc2[N+](=O)[O-])cc1`, the inhibition of corepressor binding is reported as inactive: -2.99%. `O=C(OC1CN2CCC1CC2)c1cccc([N+](=O)[O-])c1` (stereo not given) was tested, and the inhibition of corepressor binding was inactive: -15.6%. In the case of `CCOC(=O)c1ccc(NC(=O)C(C)(CCl)SC)cc1` (stereo not given), the inhibition of corepressor binding is reported as inactive: -39.2%. With `O=P1(N(CCCl)CCCl)OCCCN1CCCl` (stereo not given) the inhibition of corepressor binding was inactive: 12.8%. In the case of `O=P1(N(CCCl)CCCl)Nc2ccccc2N1`, the inhibition of corepressor binding is reported as inactive: -157%. `COc1cc(I)ccc1[As](=O)(O)O` was tested, and the inhibition of corepressor binding was inactive: -13.5%. In the case of `COc1ccc2nc(NP(=O)(c3ccccc3)c3ccccc3)sc2c1`, the inhibition of corepressor binding is reported as inactive: -23.5%. In the case of `Cc1c2c(nc3ccccc13)SC(C(Cl)Cl)C2` (stereo not given), the inhibition of corepressor binding is reported as inactive: -34.2%. For `Cc1cc(=O)[nH]c(N[N+](=O)[O-])n1`, the inhibition of corepressor binding was inactive: 14.5%. In the case of `O=C(OC1CN2CCC1CC2)C12CC3CC(CC(C3)C1)C2` (stereo not given), the inhibition of corepressor binding is reported as inactive: -10.5%. `O=[N+]([O-])c1cc(Oc2ccc([N+](=O)[O-])cc2C(F)(F)F)cc([N+](=O)[O-])c1` was tested, and the inhibition of corepressor binding was inactive: -1.89%. `COc1ccc(N/C(=N/P(=O)(N2CCOCC2)N2CCOCC2)N2CCOCC2)cc1` was tested, and the inhibition of corepressor binding was inactive: -18.9%. With `[N-]=[N+]=NC1CCCCC1NC(=O)c1cc([N+](=O)[O-])cc([N+](=O)[O-])c1` (stereo not given) the inhibition of corepressor binding was inactive: -0.43%. `Cc1ccc(OP(=O)(Nc2ccc([N+](=O)[O-])cn2)Oc2ccc(C)cc2)cc1` was tested, and the inhibition of corepressor binding was inactive: -14%. For `Cc1ccc2nc3c(c(C)c2c1)CC(C(Cl)Cl)S3` (stereo not given), the inhibition of corepressor binding was inactive: -36%. For `O=[N+]([O-])c1ccc(-c2cc([N+](=O)[O-])c(O)c([N+](=O)[O-])c2)cc1`, the inhibition of corepressor binding was inactive: -37.6%. `COc1cc(C(=O)NCC2(N3CCOCC3)CCCCC2)ccc1OCC(C)C` was tested, and the inhibition of corepressor binding was inactive: 22.2%. In the case of `C[As](=O)(O)c1cccc(C(=O)O)c1`, the inhibition of corepressor binding is reported as inactive: -30.1%. `O=[As](O)(c1ccc(O)cc1)c1ccccc1O` was tested, and the inhibition of corepressor binding was inactive: -18.9%. In the case of `O=[N+]([O-])c1cc([N+](=O)[O-])c(-c2ccn[nH]2)s1`, the inhibition of corepressor binding is reported as inactive: 18.5%. For `CC(C)NC(=O)NP(=O)(Oc1ccccc1)Oc1ccccc1`, the inhibition of corepressor binding was inactive: 20.8%. With `O=C(OC1CN2CCC1CC2)c1cccc2[nH]cnc12` (stereo not given) the inhibition of corepressor binding was inactive: 12.1%. `CCN(CC)C(=S)SC(NC=O)C(Cl)(Cl)Cl` (stereo not given) was tested, and the inhibition of corepressor binding was inactive: -21.3%. For `ClCCSc1nnc(-c2cccnc2)o1`, the inhibition of corepressor binding was inactive: -29.9%. With `COC(=O)C1(C)COP(=O)(N2CCCCCC2)OC1` (stereo not given) the inhibition of corepressor binding was inactive: 2.3%. With `CC(C)c1ccc(OP(=O)(Nc2ccccn2)Oc2ccccc2F)cc1` (stereo not given) the inhibition of corepressor binding was inactive: 9.62%. For `Cc1ccc(NP(=O)(Oc2ccccc2F)Oc2ccccc2F)nc1`, the inhibition of corepressor binding was inactive: -39.1%. For `CN(C(=O)Cc1ccc(Cl)c(Cl)c1)[C@H]1CCCC[C@@H]1N1CCCC1`, the inhibition of corepressor binding was inactive: 2.8%. For `Cc1cc(SC(NC(=O)c2ccc(F)cc2)C(Cl)(Cl)Cl)ncn1` (stereo not given), the inhibition of corepressor binding was inactive: -9.47%. For `CCOP(=O)(Nc1ccccc1)OCC`, the inhibition of corepressor binding was inactive: 0.29%. In the case of `O=P(Nc1nc2ccc(Cl)cc2s1)(c1ccccc1)c1ccccc1`, the inhibition of corepressor binding is reported as inactive: -4.53%. `CN(C)P(=O)(N(C)C)n1c(Nc2ccccc2)nnc1-c1ccccc1` was tested, and the inhibition of corepressor binding was inactive: -16.1%. In the case of `CCCC1OP(N)(=O)OCC1CC` (stereo not given), the inhibition of corepressor binding is reported as inactive: -5.1%. In the case of `CC(=O)Nc1ccc([As](=O)(O)O)cc1`, the inhibition of corepressor binding is reported as inactive: -3.23%. With `O=C(O)c1ccccc1[As](=O)(O)O` the inhibition of corepressor binding was inactive: -14%. In the case of `Nc1cccc2ccc([As](=O)(O)O)cc12`, the inhibition of corepressor binding is reported as inactive: -21.4%.
